Earlier results, collected in patent publication US20210154335A1, “DYE AGGREGATES-CONTAINING NANOPARTICLES AND USES THEREOF” (BOARD OF REGENTS, THE UNIVERSITY OF TEXAS SYSTEM, priority 2019, published 2021).
Values after ≈ are worked out from the molar mass of the structure shown.

SMILES: CC1(C)C(/C=C/C=C/C=C/C=C2\N(CCCCS(=O)(=O)O)c3ccc4ccccc4c3C2(C)C)=[N+](CCCCS(=O)(=O)[O-])c2ccc3ccccc3c21 [ICG, indocyanine green]
- solubility limit in aqueous solutions: 1150 µg/mL (≈ 1530 µM)
